Reference: ChEMBL document CHEMBL5260839 (J Med Chem, 2019)

Test system: ML-2
Experiment: cells
Details: Homo sapiens, ML-2, 96 h

IC50: 151 nM
SMILES: O=C(O)c1ccc(NC(=O)[C@@H]2NC3(CCCCC3)[C@@]3(C(=O)Nc4cc(Cl)ccc43)[C@H]2c2cccc(Cl)c2F)cc1
